In patent US3976762A (priority 1974, dated 1976):
Like-named read-outs stand apart in the source and are kept apart here.

Conditions: for Carcass, percent of total injected radioactivity / Gut, percent of total injected radioactivity / Kidney, percent of total injected radioactivity / Liver, percent of total injected radioactivity / Lungs, percent of total injected radioactivity / Pancreas, percent of total injected radioactivity / Spleen, percent of total injected radioactivity / Stomach, percent of total injected radioactivity / Urine and Feces, percent of total injected radioactivity: tail vein
[1] = mice, 0 h after injection, Sn(II) prep. of Ex. 1 (1 mg/ml), 3-5
[2] = mice, 1/2 h after injection, Sn(II) prep. of Ex. 1 (1 mg/ml), 3-5
[3] = mice, 1 h after injection, Sn(II) prep. of Ex. 1 (1 mg/ml), 3-5
[4] = mice, 2 h after injection, Sn(II) prep. of Ex. 1 (1 mg/ml), 3-5
[5] = mice, 4 h after injection, Sn(II) prep. of Ex. 1 (1 mg/ml), 3, 5

Substance: Tc-99m-chloromethylphosphonic acid diethylester
- Liver uptake and duration (in words) (animal liver): rapidly taken up by the animal liver and concentrations remain high for approximately two hours
- Localization / excretion of the complex (in words) (mice): preferentially eliminated via the liver
- Carcass, percent of total injected radioactivity [1]: 40.9%
- Gut, percent of total injected radioactivity [1]: 12.0%
- Kidney, percent of total injected radioactivity [1]: 7.0%
- Liver, percent of total injected radioactivity [1]: 29.7%
- Lungs, percent of total injected radioactivity [1]: 8.3%
- Pancreas, percent of total injected radioactivity [1]: 0.8%
- Spleen, percent of total injected radioactivity [1]: 0.3%
- Stomach, percent of total injected radioactivity [1]: 1.0%
- Urine and Feces, percent of total injected radioactivity [1]: 0.0%
- Carcass, percent of total injected radioactivity [2]: 18.4%
- Gut, percent of total injected radioactivity [2]: 29.5%
- Kidney, percent of total injected radioactivity [2]: 3.7%
- Liver, percent of total injected radioactivity [2]: 52.8%
- Lungs, percent of total injected radioactivity [2]: 1.8%
- Pancreas, percent of total injected radioactivity [2]: 0.3%
- Spleen, percent of total injected radioactivity [2]: 0.9%
- Stomach, percent of total injected radioactivity [2]: 0.6%
- Urine and Feces, percent of total injected radioactivity (mice, 1/2 h after injection, Sn(II) prep. of Ex. 1 (1 mg/ml), 3-5, 30 min): 8.1%
- Carcass, percent of total injected radioactivity [3]: 12.5%
- Gut, percent of total injected radioactivity [3]: 35.5%
- Kidney, percent of total injected radioactivity [3]: 6.0%
- Liver, percent of total injected radioactivity [3]: 37.2%
- Lungs, percent of total injected radioactivity [3]: 3.4%
- Pancreas, percent of total injected radioactivity [3]: 0.2%
- Spleen, percent of total injected radioactivity [3]: 0.4%
- Stomach, percent of total injected radioactivity [3]: 0.6%
- Urine and Feces, percent of total injected radioactivity [3]: 4.1%
- Carcass, percent of total injected radioactivity [4]: 12.8%
- Gut, percent of total injected radioactivity [4]: 48.2%
- Kidney, percent of total injected radioactivity [4]: 4.7%
- Liver, percent of total injected radioactivity [4]: 26.2%
- Lungs, percent of total injected radioactivity [4]: 1.3%
- Pancreas, percent of total injected radioactivity [4]: 0.2%
- Spleen, percent of total injected radioactivity [4]: 0.7%
- Stomach, percent of total injected radioactivity [4]: 0.5%
- Urine and Feces, percent of total injected radioactivity [4]: 5.4%
- Carcass, percent of total injected radioactivity [5]: 7.3%
- Gut, percent of total injected radioactivity [5]: 15.7%
- Kidney, percent of total injected radioactivity [5]: 2.3%
- Liver, percent of total injected radioactivity [5]: 19.2%
- Lungs, percent of total injected radioactivity [5]: 1.0%
- Pancreas, percent of total injected radioactivity [5]: 0.1%
- Spleen, percent of total injected radioactivity [5]: 0.4%
- Stomach, percent of total injected radioactivity [5]: 0.4%
- Urine and Feces, percent of total injected radioactivity [5]: 53.6%
